Laboratory results from publication PMC11628845 (Acta Pharmaceutica Sinica. B, 2024).
Read-outs that look alike come from different tables or passages of the source.

Experiments:
[1] = system: wild-type HBV (genotype C); assay: microbe, parasite or virus in culture; type: cell-based; conditions: Hepatitis B virus
wild type HBV (pHBV 1.3) = assay: microbe, parasite or virus in culture; type: cell-based; conditions: Hepatitis B virus, read-out: HBV DNA IC50

Row | SMILES | IC50 ([1]; Huh-7, read-out: HBV DNA IC50) | IC50 (wild type HBV (pHBV 1.3)) | IC50 ([1]; Huh-7, read-out: HBV DNA IC50, Wide type (genotype C))
1 | COc1ccc(Cc2[nH]/c(=N/C(=O)C34CC5CC(CC(C5)C3)C4)n(C)c2Cc2ccc(OC)c(OC)c2)cc1 [11a, (Z)-N-(5-(3,4-Dimethoxybenzyl)-4-(4-methoxybenzyl)-1-methyl-1,3-dihydro-2H-imidazole-2-ylidene)adamantane-1-carboxamide] | 752 nM | 138 nM | 
2 | C=C1[C@H](CO)[C@@H](O)C[C@@H]1n1cnc2c(=O)[nH]c(N)nc21 [ETV, entecavir, reference compound] | 1.6 nM |  | 4730 nM
